Laboratory results: ChEMBL document CHEMBL4028893, “Discovery and Optimization of Potent, Cell-Active Pyrazole-Based Inhibitors of Lactate Dehydrogenase (LDH)” (J Med Chem, 2017)

Columns and labels:
[1] = biological target: T1, L-lactate dehydrogenase A chain (Homo sapiens, UniProt P00338)
[2] = biological target: T1, L-lactate dehydrogenase A chain; remark: listed apart in the source
[3] = biological target: T2, L-lactate dehydrogenase (Homo sapiens, UniProt V9HWB9); experiment: Inhibition of LDH in human MIAPaCa2 cells assessed as reduction in lactate production preincubated for 2 hrs measured after 30 mins by high throughput fluorescence assay; assay type: cell-based
[4] = biological target: T2, L-lactate dehydrogenase; experiment: Inhibition of LDH in human A673 cells assessed as reduction in lactate production preincubated for 2 hrs measured after 30 mins by high throughput fluorescence assay; assay type: cell-based
[5] = system: MIA PaCa-2; experiment: cells; conditions: Homo sapiens, MIA PaCa-2, 48 h
[6] = system: A673; experiment: cells; conditions: Homo sapiens, A673, 48 h
[7] = system: A673; experiment: Cytotoxicity against human A673 cells assessed as long term cell growth inhibition measured every 4 hrs for 120 hrs by incucyte zoom live cell analysis; assay type: functional, cell-based
[8] = system: MIA PaCa-2; experiment: Cytotoxicity against human MIAPaCa2 cells assessed as long term cell growth inhibition measured every 4 hrs for 120 hrs by incucyte zoom live cell analysis; assay type: functional, cell-based

| Compound | IC50 [1] [µM] | IC50 [2] [µM] | IC50 [3] [µM] | IC50 [4] [µM] | IC50 [5] [µM] | IC50 [6] [µM] | IC50 [7] [µM] | IC50 [8] [µM] |
| --- | --- | --- | --- | --- | --- | --- | --- | --- |
| NS(=O)(=O)c1ccc(Nc2cn(-c3nc(C(=O)O)cs3)nc2-c2cccc(-c3ccccc3)c2)cc1 | 0.057 | 0.057 | – | – | – | – | – | – |
| NS(=O)(=O)c1ccc(Cc2c(-c3ccc(F)c(F)c3)nn(-c3nc(C(=O)O)cs3)c2O)cc1 | 0.672 | 0.672 | > 57 | – | – | – | – | – |
| NS(=O)(=O)c1ccc(Cc2cn(-c3nc(C(=O)O)cs3)nc2-c2ccccc2)cc1 | – | – | 33.5 | 25.2 | > 57 | > 57 | – | – |
| Nc1c(Cc2ccc(S(N)(=O)=O)cc2)c(-c2cccc(-c3ccccc3)c2)nn1-c1nc(C(=O)O)cs1 | 0.065 | 0.065 | 17.7 | 9.45 | > 57 | > 57 | – | – |
| O=C(O)c1csc(-n2nc(-c3ccc(F)cc3)cc2C(F)(F)F)n1 | 23.4 | 32.3 | – | – | – | – | – | – |
| NS(=O)(=O)c1ccc(Cc2c(-c3ccccc3)nn(-c3nc(C(=O)O)cs3)c2CC2CC2)cc1 | 0.009 | 0.009 | – | – | – | – | – | – |
| NS(=O)(=O)c1ccc(Cc2cn(-c3nc(C(=O)O)cs3)nc2-c2cccc(-c3ccccc3)c2)cc1 | 0.038 | 0.038 | – | – | – | – | – | – |
| NS(=O)(=O)c1ccc(Cc2c(-c3cccc(-c4ccccc4)c3)nn(-c3nc(C(=O)O)cs3)c2CC2CC2)cc1 | – | – | 0.854 | – | – | – | 2.23 | 1.21 |
| NS(=O)(=O)c1ccc(Cc2c(-c3cccc(-c4ccccc4F)c3)nn(-c3nc(C(=O)O)cs3)c2O)cc1 | 0.754 | 0.754 | – | – | – | – | – | – |
| NS(=O)(=O)c1ccc(Cc2c(-c3ccccc3)nn(-c3nc(C(=O)O)cs3)c2-c2cccnc2)cc1 | 0.349 | 0.349 | – | – | – | – | – | – |
| NS(=O)(=O)c1ccc(Cc2c(-c3ccccc3)nn(-c3nc(C(=O)O)cs3)c2C2CC2)cc1 | 0.019 | 0.019 | 17.5 | 14.7 | > 57 | > 57 | – | – |
| NS(=O)(=O)c1ccc(Cc2c(-c3cccc(-c4ccccc4)c3)nn(-c3nc(C(=O)O)cs3)c2C(F)(F)F)cc1 | 0.053 | 0.053 | – | – | – | – | – | – |
| NS(=O)(=O)c1ccc(Oc2c(-c3cccc(-c4ccccc4)c3)nn(-c3nc(C(=O)O)cs3)c2C2CC2)cc1 | 0.11 | 0.11 | – | 1.92 | – | – | – | – |
| O=C1N[C@](c2ccc(N3CCOCC3)cc2)(c2ccsc2)CC(O)=C1Sc1ccccc1Cl | – | – | – | – | 1.24 | 2.63 | – | – |
| NS(=O)(=O)c1ccc(Cc2c(-c3cccc(-c4ccccc4)c3)nn(-c3nc(C(=O)O)cs3)c2O)cc1 | 0.349 | 0.349 | – | – | – | – | – | – |
